# The entries are a selection whose mix differs from that of the whole data set. Inconclusive results are not listed. Calls of active or inactive are those of the source. Calls come from the whole dose curve; as a rule, active = well fitted inhibition curve with a large enough effect; inconclusive = small, poorly fitted or top-dose-only effect, or another doubt; inactive = no such curve, though single readings can be large or run the other way.
# Target: 4'-phosphopantetheinyl transferase ffp (Bacillus subtilis) (UniProt Q9F4F7)
# Test: qHTS Assay for Inhibitors of Bacillus subtilis Sfp phosphopantetheinyl transferase (PPTase);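 note: the enzyme is Sfp with the accession as filed and its product quenches rhodamine fluorescence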
# Conditions: Biochemical Sfp PPTase activity
# Potency is the fitted concentration of half-maximal effect.
row,SMILES,Potency
1,Clc1n[nH]nc1-c1nn[nH][15n]1,active: 56.2 µM
2,CC(C)(C)C(=O)NC(Sc1ncccn1)C(Cl)(Cl)Cl (centres undefined),active: 8.91 µM
3,CS(=O)(=O)c1cc([N+](=O)[O-])c2no[n+]([O-])c2c1,active: 3.16 µM
4,O=[N+]([O-])c1cc([N+](=O)[O-])c(-c2ccn[nH]2)s1,active: 70.8 µM
5,Cc1cc(SC(NC=O)C(Cl)(Cl)Cl)ncn1 (centres undefined),active: 2 µM
6,Cc1cc(SC(NC(=O)c2ccccc2)C(Cl)(Cl)Cl)nc(C(C)C)n1 (centres undefined),active: 28.2 µM
7,CC(C)(C)C(=O)NC(Sc1ccncn1)C(Cl)(Cl)Cl (centres undefined),active: 7.94 µM
8,CCc1nc2c(n1)c1c(non1O)c1c2no[n+]1[O-],active: 56.2 µM
9,COc1ccc(C2=NCC(CBr)S2)cc1 (centres undefined),active: 50.1 µM
10,Cc1c2non([O-])c-2c(C)[n+](=O)[n+]1[O-],active: 3.98 µM
11,O=C(NC(Sc1ccncn1)C(Cl)(Cl)Cl)c1ccccc1 (centres undefined),active: 11.2 µM
12,Nc1cccc2ccc([As](=O)(O)O)cc12,active: 79.4 µM
13,Cc1cc(SC(NC(=O)c2ccc(F)cc2)C(Cl)(Cl)Cl)ncn1 (centres undefined),active: 8.91 µM
14,CCOc1ccc(C2=NCC(CBr)S2)cc1 (centres undefined),active: 17.8 µM

# Reference: PubChem BioAssay AID1490 (National Center for Advancing Translational Sciences (NCATS), 2009)
